According to US5256548A, “Antiviral antibiotic BU-4344V” (Bristol-Myers Squibb Company, priority 1992, dated 1993):

How the values were obtained:
[1] = tested on: Madin Darby canine kidney (MDCK) cells
[2] = tested on: MDCK Cells

With `NC(=O)c1ncn([C@@H]2O[C@H](CO)[C@@H](O)[C@H]2O)n1` [Ribavirin, reference compound] the “TD50 (concentration exhibiting 50% cytotoxicity)” value [1] was over 100 and the “MTD (Minimal Toxic Dose)” value [2] was over 100.
